From US20060252774A1, “Regulation of type 5 adenylyl cyclase for treatment of neurodegenerative and cardiac diseases” (priority 2002, published 2006)

Test system: striatal AC
Assay: D1 or D2 receptor agonist-stimulated AC activity in striatal membrane preparations
Type: biochemical, mouse
Settings: 10 µM

CCCN1CCC[C@@H]2Cc3n[nH]cc3C[C@H]21 [Quinpirole]
inhibition of SKF38393-stimulated AC activity, decrease: 13.5±1.1%
